Laboratory results as given in ChEMBL document CHEMBL1134429, “The development of a potential single photon emission computed tomography (SPECT) imaging agent for the corticotropin-releasing hormone receptor type” (Bioorg Med Chem Lett, 2001).

Molecular target: T1, Corticotropin-releasing factor receptor 1 (Rattus norvegicus, UniProt P35353)
T1 sequence (P35353 whole entry): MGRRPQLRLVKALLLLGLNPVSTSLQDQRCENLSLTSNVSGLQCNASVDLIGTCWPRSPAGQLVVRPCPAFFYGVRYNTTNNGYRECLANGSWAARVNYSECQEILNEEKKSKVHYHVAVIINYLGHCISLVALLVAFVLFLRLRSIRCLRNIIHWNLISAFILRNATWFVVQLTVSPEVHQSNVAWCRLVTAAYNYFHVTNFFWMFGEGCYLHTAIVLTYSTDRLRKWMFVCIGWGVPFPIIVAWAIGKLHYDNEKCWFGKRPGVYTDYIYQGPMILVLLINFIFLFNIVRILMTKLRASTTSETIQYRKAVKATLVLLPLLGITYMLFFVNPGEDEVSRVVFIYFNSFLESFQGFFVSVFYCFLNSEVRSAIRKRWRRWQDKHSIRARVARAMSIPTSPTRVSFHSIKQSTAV
Experiment: Binding affinity towards Corticotropin releasing hormone receptor type 1 of rat cerebellum using [125I]Tyr-sauvagine as radioligand.
Assay type: tissue-based

Ki: 21 nM
SMILES: CCCN(CC1CC1)c1nc(C)nc(Nc2c(Cl)cc(Br)cc2Cl)c1Cl
